Earlier results, collected in US20070059382A1 (published 2007).

Conditions: in vivo; cited from earlier work

## [B] [boron]
  fraction of consumed boron absorbed: about 90%
